Experimental data taken from patent US20030162783A1 (priority 1999, published 2003).

System: Chronic Constriction Injury (CCI) rats, thermal hyperalgesia
Test: Test C: Neuropathic pain model (Chronic Constriction Injury), thermal hyperalgesia paw-withdrawal
Assay type: in vivo
Conditions: Rattus norvegicus, po
Excerpt: Test C: Neuropathic Pain Model (Chronic Constriction Injury):
(Mean of vehicle group−Mean of compound group)/(Mean of vehicle group)×100

O=c1c2ccc(Cl)cc2[nH]c2c(O)nn(Cc3ccoc3)c(=O)c12 [Ex. 10, 7-Chloro-4-hydroxy-2-(furan-3-ylmethyl)-1,2,5,10-tetrahydropyridazino[4,5-b]quinoline-1,10-dione]
minimal effective dose (120 h, read-out: Test C MED (minimum effective dose)): 30 mg/kg/day | inhibition in vivo at 30 mg/kg/day (read-out: Test C (% Inh.): percent decrease in hyperalgesia at the MED): 41%
